Measurements taken from patent publication US6630179B1, “Oxihumic acid and its use in the treatment of various conditions” (priority 1998, dated 2003).

Assay: Study 1506: Acute eye irritation/corrosion test in rabbits
Details: rabbit, in vivo
From the text: Study 1506: Acute Eye Irritation/corrosion Test in Rabbits

For Potassium oxihumate, the iris lesion was “non-irritant”.
